Results published in ChEMBL document CHEMBL2396615, “Inhibition of soluble epoxide hydrolase by fulvestrant and sulfoxides” (Bioorg Med Chem Lett, 2013).
Active and inactive are the calls of the source. No cut-off for these calls is given here.

Amino acid sequences for entries named in this document (tags omitted).
UniProt P34913, whole entry: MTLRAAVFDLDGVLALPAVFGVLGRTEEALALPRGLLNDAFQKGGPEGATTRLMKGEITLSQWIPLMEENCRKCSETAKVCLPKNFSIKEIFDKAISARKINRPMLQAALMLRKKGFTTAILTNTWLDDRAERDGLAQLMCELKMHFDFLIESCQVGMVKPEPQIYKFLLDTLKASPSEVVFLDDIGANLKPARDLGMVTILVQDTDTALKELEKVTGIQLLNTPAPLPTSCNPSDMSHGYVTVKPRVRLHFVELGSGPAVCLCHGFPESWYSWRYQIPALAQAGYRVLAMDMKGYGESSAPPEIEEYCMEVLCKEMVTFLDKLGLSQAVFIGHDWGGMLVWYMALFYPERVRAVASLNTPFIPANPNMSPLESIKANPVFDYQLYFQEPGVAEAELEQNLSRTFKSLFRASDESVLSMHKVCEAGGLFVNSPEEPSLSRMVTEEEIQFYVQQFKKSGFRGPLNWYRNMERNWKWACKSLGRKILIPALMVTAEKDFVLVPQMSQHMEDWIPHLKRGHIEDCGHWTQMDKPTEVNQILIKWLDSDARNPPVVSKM

Columns and labels:
[1] = target: T1, Bifunctional epoxide hydrolase 2 (Homo sapiens, UniProt P34913); test: Reversible inhibition of human recombinant soluble epoxide hydrolase assessed as residual enzyme activity at 10 uM after 15 mins relative to control
[2] = target: T1, Bifunctional epoxide hydrolase 2; test: Inhibition of human recombinant soluble epoxide hydrolase

C[C@]12CC[C@@H]3c4ccc(O)cc4C[C@@H](CCCCCCCCC[S+]([O-])CCCC(F)(F)C(F)(F)F)[C@H]3[C@@H]1CC[C@@H]2O (some centres not stated) [FULVESTRANT]
Activity [1]: > 80% | inhibition [2]: Active
